The list shows a part of the results, in another mix than the full data. Active and inactive are the calls of the source. Cut-off read from the data, not from the text of the source: active = inhibition above about 22% (passing the limit was not always enough); inactive = the rest.
Molecular target: Mu-type opioid receptor (Homo sapiens) + Delta-type opioid receptor (Homo sapiens) (UniProt P35372+P41143)
Assay: OPRM1-OPRD1 heterodimer inverse agonism – cell-based, luminescence, primary screen (AID 504357);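 note: 0% = cells with DMSO and 100% = wells without cells with DMSO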
Settings: cell-based MOR-DOR heterodimer luminescence, at 9.3 µM, active compounds read high

The chains behind the UniProt entries cited, without tags or fusion partners.
UniProt P35372, whole entry, looked up: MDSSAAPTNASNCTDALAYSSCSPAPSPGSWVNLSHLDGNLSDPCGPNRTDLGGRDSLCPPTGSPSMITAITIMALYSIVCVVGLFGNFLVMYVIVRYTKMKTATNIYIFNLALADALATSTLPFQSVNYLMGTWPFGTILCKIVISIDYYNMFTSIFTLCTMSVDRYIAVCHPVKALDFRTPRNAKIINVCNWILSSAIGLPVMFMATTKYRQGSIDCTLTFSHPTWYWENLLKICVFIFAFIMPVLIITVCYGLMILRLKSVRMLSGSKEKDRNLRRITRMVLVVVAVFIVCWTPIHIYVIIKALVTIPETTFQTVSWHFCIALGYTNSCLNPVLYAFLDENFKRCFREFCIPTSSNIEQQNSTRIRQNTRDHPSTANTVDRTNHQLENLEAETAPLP
UniProt P41143, whole entry, looked up: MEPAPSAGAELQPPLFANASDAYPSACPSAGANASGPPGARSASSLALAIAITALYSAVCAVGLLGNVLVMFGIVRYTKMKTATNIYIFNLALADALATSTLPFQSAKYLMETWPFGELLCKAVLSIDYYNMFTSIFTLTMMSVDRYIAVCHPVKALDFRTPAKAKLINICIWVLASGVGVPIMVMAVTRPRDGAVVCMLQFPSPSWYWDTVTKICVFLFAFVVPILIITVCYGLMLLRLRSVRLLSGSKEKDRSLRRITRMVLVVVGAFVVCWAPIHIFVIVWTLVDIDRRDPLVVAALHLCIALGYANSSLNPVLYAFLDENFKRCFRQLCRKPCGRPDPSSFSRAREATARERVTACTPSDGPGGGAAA

Question: Which inhibition does the source give for `NNC(=O)Cn1c(-c2ccccn2)nc2ccccc21` here?
Answer: inactive: -5.56%

Question: `COc1cc(NC(=O)[C@H](C)NC(=O)N2CCn3c2nc2ccccc23)cc(OC)c1` was tested. Which inhibition did it give?
Answer: inactive: 15.3%

Question: With `O=C(Cn1c(CO)nc2ccccc21)Nc1ccc2c(c1)OCCCO2` as the compound, how does the inhibition read?
Answer: inactive: 3.41%

Question: For `Cn1c(=O)[nH]c(=O)c2c1ncn2CCN1CCCCC1`, which inhibition is on record?
Answer: inactive: 9.99%

Question: Which inhibition does the source give for `COC(=O)C[C@H](NC(=O)Cn1cnc2c(OCc3ccccc3)ncnc21)C(=O)OC` here?
Answer: inactive: 1.48%

Question: `CCOC(=O)Nc1cccc([As](=O)(O)O)c1` was tested. Which inhibition did it give?
Answer: inactive: 6.02%

Question: For `Cn1c(=O)c2c(ncn2CC(=O)NCc2cccnc2)n(C)c1=O`, which inhibition is on record?
Answer: inactive: -2.62%

Question: How did the inhibition turn out when `Cc1ccc(NC(=O)Cn2c(=S)[nH]c3ccccc32)cc1` was run?
Answer: inactive: 6.49%

Question: Which inhibition does the source give for `O=C(C1CCCN(S(=O)(=O)c2cccnc2)C1)N1CCn2c1nc1ccccc12` (centres undefined) here?
Answer: inactive: 0.33%

Question: `O=C(Cn1cnc2ccccc21)Nc1ccc(SC(F)F)cc1` was tested. Which inhibition did it give?
Answer: inactive: -14.1%

Question: How did the inhibition turn out when `CC(NC(=O)Cn1cnc2c1c(=O)n(C)c(=O)n2C)c1ccccc1` (centres undefined) was run?
Answer: inactive: -6.08%

Question: `COc1ccc(CNC(=O)Cn2cnc3c(NCc4ccccc4)ncnc32)cc1` was tested. Which inhibition did it give?
Answer: inactive: 20.9%

Question: `c1ccc(Cn2c(CNc3nc4ccccc4n3CCN3CCOCC3)nc3ccccc32)cc1` was tested. Which inhibition did it give?
Answer: inactive: 12.8%

Question: How did the inhibition turn out when `Cc1nc2cc(C(F)(F)F)ccc2n1CCNc1nc(-c2ccc(F)cc2)cs1` was run?
Answer: inactive: -3.83%

Question: How did the inhibition turn out when `CCOCN(C(=O)Cn1cnc2ccccc21)c1c(C)cccc1CC` was run?
Answer: inactive: 11.3%

Question: `CCC(C(=O)NC1CCCCC1)n1c(SCc2cccc(C)c2)nc2ccncc21` (centres undefined) was tested. Which inhibition did it give?
Answer: inactive: 0.74%

Question: `O=C(Nc1ccncc1[N+](=O)[O-])c1ccc([N+](=O)[O-])cc1[N+](=O)[O-]` was tested. Which inhibition did it give?
Answer: inactive: -31.8%

Question: How did the inhibition turn out when `O=C(COc1ccccc1)OC1CN2CCC1CC2` (centres undefined) was run?
Answer: inactive: 8.96%

Question: With `O=C(Cn1cnc2ccccc21)Nc1ccc(F)c(F)c1` as the compound, how does the inhibition read?
Answer: inactive: -9.9%

Question: For `COC(=O)c1cccc(NC(=O)Cn2cnc3c2c(=O)n(C)c(=O)n3C)c1`, which inhibition is on record?
Answer: inactive: 8.05%

Question: `Cc1ccc2c(c1)C1CN(C)CCC1N2S(=O)(=O)c1cccc(C(F)(F)F)c1` (centres undefined) was tested. Which inhibition did it give?
Answer: inactive: -6.53%

Question: How did the inhibition turn out when `O=C(Cn1cnc2c(OCc3ccccc3)ncnc21)N1CCN(c2ccccn2)CC1` was run?
Answer: inactive: 2.18%

Question: Which inhibition does the source give for `N#CCC(=O)N/N=C\c1cccc(OC/C=C/c2ccccc2)c1` here?
Answer: inactive: -18.8%

Question: How did the inhibition turn out when `CC(C)[C@H](NC(=O)N1CCn2c1nc1ccccc12)C(=O)N[C@H](Cc1ccccc1)C(=O)O` was run?
Answer: inactive: 6.33%

Question: `O=C(Nc1ccccc1C(F)(F)F)N1CCC(n2c(=O)[nH]c3ccccc32)CC1` was tested. Which inhibition did it give?
Answer: inactive: 7.07%

Question: Which inhibition does the source give for `Cc1ccc(C)c(S(=O)(=O)N2CCN(C(=O)Cn3cnc4c3c(=O)n(C)c(=O)n4C)CC2)c1` here?
Answer: inactive: 1.24%

Question: For `CN(C)CCn1c(NCc2ccc3c(c2)OCO3)nc2ccccc21`, which inhibition is on record?
Answer: inactive: 11.2%

Question: How did the inhibition turn out when `COC(=O)C[C@H](NC(=O)Cn1cnc2c(NCc3ccccc3)ncnc21)C(=O)OC` was run?
Answer: inactive: 10.5%

Question: `COP1(=S)c2c(C)nn(CCC#N)c2N=C(c2ccc(F)cc2)N1C` (centres undefined) was tested. Which inhibition did it give?
Answer: inactive: 9.8%

Question: `CSc1nc(N)nc2c1ncn2CC(=O)Nc1ccc(C)c(C)c1` was tested. Which inhibition did it give?
Answer: inactive: 8.64%

Question: For `N=c1n(CCN2CCCCC2)c2ccccc2n1CC(=O)c1cccs1`, which inhibition is on record?
Answer: inactive: 3.86%

Question: `COc1ccc2c(c1)C1(Nc3ccccc3-c3nc4ccccc4n31)C(=O)N2C` (centres undefined) was tested. Which inhibition did it give?
Answer: inactive: 11.2%

Question: With `CC(C)[C@H](NC(=O)N1CCn2c1nc1ccccc12)C(=O)NC1CC1` as the compound, how does the inhibition read?
Answer: inactive: 11.4%

Question: With `COc1cccc(NC(=O)[C@H](CC(C)C)NC(=O)N2CCn3c2nc2ccccc23)c1` as the compound, how does the inhibition read?
Answer: inactive: 3.97%

Question: How did the inhibition turn out when `O=C(Cn1cnc2c(NC(=O)OCc3ccccc3)ncnc21)NCCN1CCOCC1` was run?
Answer: inactive: 7.99%

Question: With `CC(C)NC(=O)Cn1c(SCC(=O)NC2CCCC2)nc2ccccc21` as the compound, how does the inhibition read?
Answer: inactive: 19.9%

Question: For `N=c1n(CCN2CCCC2)c2ccccc2n1CC(O)c1ccc(Cl)c(Cl)c1` (centres undefined), which inhibition is on record?
Answer: inactive: -10%

Question: With `C=CCn1c(=O)c2c(nc3n2CCN3c2cccc(Cl)c2C)n(C)c1=O` as the compound, how does the inhibition read?
Answer: inactive: 13.5%

Question: With `O=C(c1ccccc1)N1CCn2c(nc3ccccc32)C1` as the compound, how does the inhibition read?
Answer: inactive: 5.45%

Question: How did the inhibition turn out when `O=[N+]([O-])c1ccc2c(c1)nc1n2CCN(c2ccccc2)C1` was run?
Answer: inactive: 10.7%

Question: With `CCc1ccc(S(=O)(=O)N2c3ccc(C)cc3C3CN(C)CCC32)cc1` (centres undefined) as the compound, how does the inhibition read?
Answer: inactive: 8.13%

Question: Which inhibition does the source give for `CCc1cccc(C)c1N(C(=O)Cn1c(COC)nc2ccccc21)C(C)COC` (centres undefined) here?
Answer: inactive: 12.3%

Question: How did the inhibition turn out when `Cc1ccc(NC(=O)CCC(=O)N/N=C/C=C/c2ccccc2)cc1` was run?
Answer: inactive: -11.2%

Question: For `CC(C)NC(=O)Cn1c(SCC(=O)N2CCCc3ccccc32)nc2ccccc21`, which inhibition is on record?
Answer: inactive: 10.7%

Question: For `Cc1nc2ccccc2n1CC(=O)N/N=C\c1ccccn1`, which inhibition is on record?
Answer: inactive: -11.3%

Question: How did the inhibition turn out when `CCN1C(=O)C2(Nc3ccccc3-c3nc4ccccc4n32)c2cc(OC)ccc21` (centres undefined) was run?
Answer: inactive: 0.82%

Question: How did the inhibition turn out when `O=C(Cn1cnc2c(NC(=O)OCc3ccccc3)ncnc21)NCc1ccccn1` was run?
Answer: inactive: 5.19%

Question: For `Cc1nc2ccccc2n1CC(=O)NN`, which inhibition is on record?
Answer: inactive: -0.02%

Question: Which inhibition does the source give for `CCc1ccc(NC(=O)Cn2c(SC)nc3ccccc32)cc1` here?
Answer: inactive: 2.37%

Question: Which inhibition does the source give for `CCC(C)N(CC(C)C)C(=S)SC(NC(C)=O)C(Cl)(Cl)Cl` (centres undefined) here?
Answer: inactive: 4.05%

Question: Which inhibition does the source give for `CC1CC(C)CN(C(=O)Cn2c(SCC(=O)N3CCc4ccccc4C3)nc3ccccc32)C1` (centres undefined) here?
Answer: inactive: 2.05%

Question: With `COc1ccccc1NC(=O)Cn1cnc2c1c(=O)n(C)c(=O)n2C` as the compound, how does the inhibition read?
Answer: inactive: 11.1%

Question: With `COc1ccc(N2C(=O)CC(n3cnc4ccccc43)C2=O)cc1` (centres undefined) as the compound, how does the inhibition read?
Answer: inactive: 10.8%

Question: For `Cc1ccc2c(c1)C1CN(C)CCC1N2C(=O)Cc1cccs1` (centres undefined), which inhibition is on record?
Answer: inactive: -8.49%

Question: How did the inhibition turn out when `CN1C(=O)C2(Nc3ccccc3-c3nc4ccccc4n32)c2ccccc21` (centres undefined) was run?
Answer: inactive: 15%

Question: Which inhibition does the source give for `CCC(C)[C@H](NC(=O)N1CCn2c1nc1ccccc12)C(=O)NCc1ccccc1` (some centres undefined) here?
Answer: inactive: -9.02%

Question: `Cc1ccc(NC(=O)Cn2cnc3ccccc32)cc1C` was tested. Which inhibition did it give?
Answer: inactive: 2.51%

Question: For `CSc1nc2ccccc2n1CC(=O)Nc1ccccc1`, which inhibition is on record?
Answer: inactive: 9.34%

Question: How did the inhibition turn out when `Cc1nc2ccccc2n1CCN1CCOCC1` was run?
Answer: inactive: 13.3%
